Source: ChEMBL document CHEMBL5500354, “Novel selective agents for the degradation of AR/AR-V7 to treat advanced prostate cancer” (Eur J Med Chem, 2024)

Sequences of proteins named here, by UniProt entry; tags and fusion partners are left off.
UniProt P03372, whole entry: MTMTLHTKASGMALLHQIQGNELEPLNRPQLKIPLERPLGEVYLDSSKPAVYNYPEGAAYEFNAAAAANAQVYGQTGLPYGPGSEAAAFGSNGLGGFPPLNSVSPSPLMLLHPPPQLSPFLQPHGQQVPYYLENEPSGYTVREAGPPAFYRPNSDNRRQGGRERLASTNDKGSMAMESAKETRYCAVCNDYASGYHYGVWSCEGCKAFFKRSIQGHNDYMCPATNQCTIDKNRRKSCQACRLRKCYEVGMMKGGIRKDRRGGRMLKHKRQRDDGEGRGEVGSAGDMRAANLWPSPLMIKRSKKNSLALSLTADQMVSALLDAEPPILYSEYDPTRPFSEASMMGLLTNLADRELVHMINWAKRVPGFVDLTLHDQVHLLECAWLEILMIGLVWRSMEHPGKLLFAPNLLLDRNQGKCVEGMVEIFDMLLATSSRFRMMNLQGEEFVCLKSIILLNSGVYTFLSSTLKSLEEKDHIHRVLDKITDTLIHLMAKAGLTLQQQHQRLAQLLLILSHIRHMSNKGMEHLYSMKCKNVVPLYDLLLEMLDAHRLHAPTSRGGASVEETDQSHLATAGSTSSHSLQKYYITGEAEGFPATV

Experiments:
[1] = molecular target: Estrogen receptor (Homo sapiens) (UniProt P03372); assay: Induction of estrogen receptor (unknown origin) degradation by Western blot analysis
[2] = molecular target: T1, Glucocorticoid receptor (Homo sapiens) (UniProt P04150); assay: Induction of glucocorticoid receptor (unknown origin) degradation by Western blot analysis
T1 sequence (whole entry): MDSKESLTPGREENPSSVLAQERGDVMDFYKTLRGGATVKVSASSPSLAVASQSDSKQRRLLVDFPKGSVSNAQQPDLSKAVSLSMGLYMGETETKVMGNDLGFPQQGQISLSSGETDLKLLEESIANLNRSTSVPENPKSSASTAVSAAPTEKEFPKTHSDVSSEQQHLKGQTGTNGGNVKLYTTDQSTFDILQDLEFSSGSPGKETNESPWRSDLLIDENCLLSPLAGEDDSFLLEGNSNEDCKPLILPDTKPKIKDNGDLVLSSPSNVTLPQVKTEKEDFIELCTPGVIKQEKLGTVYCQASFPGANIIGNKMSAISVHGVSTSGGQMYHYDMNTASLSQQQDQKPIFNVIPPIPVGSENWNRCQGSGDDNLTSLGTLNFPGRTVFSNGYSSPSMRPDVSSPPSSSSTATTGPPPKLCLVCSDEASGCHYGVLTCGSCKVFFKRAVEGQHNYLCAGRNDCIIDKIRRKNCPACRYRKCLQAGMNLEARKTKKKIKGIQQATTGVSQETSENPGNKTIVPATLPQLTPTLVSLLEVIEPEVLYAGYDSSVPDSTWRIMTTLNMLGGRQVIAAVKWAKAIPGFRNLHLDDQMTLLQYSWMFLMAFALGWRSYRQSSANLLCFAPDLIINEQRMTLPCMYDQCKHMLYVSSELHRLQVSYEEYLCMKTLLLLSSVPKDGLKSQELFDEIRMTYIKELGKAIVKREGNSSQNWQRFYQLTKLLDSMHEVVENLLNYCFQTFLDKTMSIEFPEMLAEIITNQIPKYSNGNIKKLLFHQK

[3] = Toxicity in Sprague-Dawley rat at 10 mg/kg, IG measured after 24 hrs; format: organism-based; conditions: in vivo, po
[4] = Toxicity in Balb/c nude mouse xenografted with human 22Rv1 cells assessed as body weight loss at 10 to 20 mg/kg, ip administered every 3 days for 22 days; format: organism-based, CWR22R; conditions: in vivo, 528 h, dose 10-20 mg/kg, time 22 day
[5] = molecular target: T2, Androgen receptor (Mus musculus) (UniProt P19091); assay: In vivo induction of androgen receptor degradation in Balb/c nude mouse xenografted with human 22Rv1 cells assessed as decrease in AR protein expression in tumor at 10 to 20 mg/kg, ip administered every 3 days for 22 days by DAPI staining based immunohistochemical analysis; format: functional, organism-based; conditions: CWR22R, dose 10-20 mg/kg, time 22.0 day
T2 sequence (whole entry): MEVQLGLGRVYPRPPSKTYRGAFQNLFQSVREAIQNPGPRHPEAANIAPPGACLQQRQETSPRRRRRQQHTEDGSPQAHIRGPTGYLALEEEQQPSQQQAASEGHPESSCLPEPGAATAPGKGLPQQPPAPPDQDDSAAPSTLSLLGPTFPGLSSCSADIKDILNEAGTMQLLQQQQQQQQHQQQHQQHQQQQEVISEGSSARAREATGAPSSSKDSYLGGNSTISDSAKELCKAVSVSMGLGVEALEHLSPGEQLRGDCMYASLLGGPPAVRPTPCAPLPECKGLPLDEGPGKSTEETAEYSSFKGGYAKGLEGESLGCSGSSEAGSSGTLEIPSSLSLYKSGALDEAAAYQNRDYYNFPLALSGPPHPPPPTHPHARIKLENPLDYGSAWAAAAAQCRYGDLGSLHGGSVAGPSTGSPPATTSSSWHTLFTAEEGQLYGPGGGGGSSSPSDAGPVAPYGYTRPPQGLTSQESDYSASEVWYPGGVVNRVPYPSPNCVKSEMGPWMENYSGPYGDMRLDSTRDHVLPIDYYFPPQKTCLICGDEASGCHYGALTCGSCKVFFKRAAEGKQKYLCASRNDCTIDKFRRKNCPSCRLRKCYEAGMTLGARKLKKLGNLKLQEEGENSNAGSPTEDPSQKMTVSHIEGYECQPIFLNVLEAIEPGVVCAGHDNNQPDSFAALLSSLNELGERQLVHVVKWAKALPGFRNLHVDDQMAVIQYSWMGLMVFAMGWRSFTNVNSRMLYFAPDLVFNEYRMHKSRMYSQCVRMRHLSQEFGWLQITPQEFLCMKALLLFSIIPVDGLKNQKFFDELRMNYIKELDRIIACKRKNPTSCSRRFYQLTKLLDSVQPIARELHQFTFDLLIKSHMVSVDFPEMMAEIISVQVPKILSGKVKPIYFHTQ

## N#Cc1ccc(O[C@H]2CC[C@H](NC(=O)c3ccc(N4CCC(Cc5ccc(NC6CN(CCCF)C6)cc5)CC4)nn3)CC2)cc1Cl
[1]
  Activity: inactive
[2]
  Activity: inactive
[3]
  Activity: Non-Toxic
[4]
  Activity: Non-Toxic
[5]
  Activity: Active

Active and inactive are the calls of the source. The calls are words filed in the database; no cut-off is given here.
